This passage reports Ki results from BindingDB's records for doi:10.1124/jpet.102.047118 (Juvantia Pharma, 2003).

Sequences of proteins named here, by UniProt entry; tags and fusion partners are left off. A change or cut given only in a name is not applied to a line headed by its entry.
UniProt Q9Y5X5: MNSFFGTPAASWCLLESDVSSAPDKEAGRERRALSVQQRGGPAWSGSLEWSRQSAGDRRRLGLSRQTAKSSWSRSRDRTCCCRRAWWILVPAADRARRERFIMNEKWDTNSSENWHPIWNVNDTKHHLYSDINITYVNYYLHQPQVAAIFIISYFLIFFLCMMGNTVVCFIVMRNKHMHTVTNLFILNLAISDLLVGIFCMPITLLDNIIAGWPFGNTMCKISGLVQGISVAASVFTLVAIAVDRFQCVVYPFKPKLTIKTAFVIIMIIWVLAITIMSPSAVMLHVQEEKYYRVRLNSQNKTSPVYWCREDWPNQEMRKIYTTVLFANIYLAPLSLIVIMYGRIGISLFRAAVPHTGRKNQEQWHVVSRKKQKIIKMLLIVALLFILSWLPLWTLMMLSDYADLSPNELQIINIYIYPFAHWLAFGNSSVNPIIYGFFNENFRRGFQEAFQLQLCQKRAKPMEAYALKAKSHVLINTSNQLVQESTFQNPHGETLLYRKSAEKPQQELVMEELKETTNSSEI

The target of assay [1] is Neuropeptide FF receptor 2 (Homo sapiens, UniProt Q9Y5X5).

As a reminder, the Ki is the equilibrium dissociation constant of an inhibitor or competing ligand from its target. Low readings indicate a stronger hold on the target, high ones a looser hold on the target. Regarding `CSCC[C@H](NC(=O)[C@@H](N)Cc1ccccc1)C(=O)N[C@@H](CCCN=C(N)N)C(=O)N[C@@H](Cc1ccccc1)C(N)=O` [CAS_68615], affinity was put at a Ki of 2.2 nM. For the same molecule, in assay [1], the Ki was 13 nM.
